Measurements published in US20210379151A1 (ACADEMIA SINICA, priority 2018, published 2021).

Assays:
[1] = tested on: neuroinflammation-related genes; assay: Real time quantitative PCR of neuroinflammation markers; type: in vivo, mouse; conditions: for gene expression of Il6: 4 hours
From the text: GAPDH was used an internal control.
Argaw et al., J. Clin. Invest. 2012,122 (7), 2454-2468 (2012). […] Kaya et al., J. Cereb. Blood Flow Metab., 25 (9), 1111-1118 (2005). […] Skelly et al., PLoS One, 8 (7), 1-20 (2013); and Monnet-Tschudi et al., Curr. Protoc. Toxicol., No. SUPPL. 50, 1-20 (2011). […] Cryolesion and LPS were both used as positive controls.

S100β = conditions: in vivo
[2] = mouse, in vivo
[3] = pig, in vivo
[4] = mouse, in vivo; remark: listed apart in the source

## VEGF
[1]; 45 minutes following VEGF administration
  expression of neuroinflammation genes compared to controls: no elevation
[1]; single VEGF
  gene expression of Il6: not single VEGF
[1]; treatment groups utilising multi-VEGF
  gene expression of Il6: increased after 4 hours
[1]; 24 hours after the treatment
  expression of Tnfa, Ccl2 and Cxcl1: moderately increased
[1]; four hours after VEGF treatment
  expression of Tnfa, Ccl2 and Cxcl1: unchanged
[1]; mouse brain, four or 24 hours
  expression of neuroinflammation-related genes: moderately increased
S100β
  mouse plasma S100β: no significant change
[2]
  blood pressure: no notable change
[3]
  blood pressure compared to control: no clear changes
  clinical observation: rapid, but temporary, flushing reaction in one pig
[4]
  blood chemistry for liver and kidney function: no adverse changes
